# Values quoted from earlier work as cited in patent US20090233942A1, “Genetic markers associated with response to antidepressants” (priority 2008, published 2009).
# By UniProt entry, the sequences of proteins in these tests, tags left out.
# UniProt P10635, whole entry: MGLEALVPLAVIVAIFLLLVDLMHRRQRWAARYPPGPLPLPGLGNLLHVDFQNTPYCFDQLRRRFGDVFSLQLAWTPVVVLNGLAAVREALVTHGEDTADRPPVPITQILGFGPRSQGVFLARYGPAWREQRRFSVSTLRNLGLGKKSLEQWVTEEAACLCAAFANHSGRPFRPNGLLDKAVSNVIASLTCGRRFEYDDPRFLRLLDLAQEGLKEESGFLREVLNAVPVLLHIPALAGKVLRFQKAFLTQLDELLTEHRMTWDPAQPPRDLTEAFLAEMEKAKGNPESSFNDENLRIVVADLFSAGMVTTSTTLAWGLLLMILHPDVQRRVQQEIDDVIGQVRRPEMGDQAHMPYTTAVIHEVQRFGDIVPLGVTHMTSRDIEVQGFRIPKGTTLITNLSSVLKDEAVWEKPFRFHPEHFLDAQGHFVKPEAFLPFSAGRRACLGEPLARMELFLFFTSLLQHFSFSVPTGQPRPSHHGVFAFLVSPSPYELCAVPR
# Target: CYP2D6 (Homo sapiens, UniProt P10635)
# Details: cited from earlier work
structure (smiles),measurement,value
CNCCC(Oc1ccc(C(F)(F)F)cc1)c1ccccc1 (stereo not shown) [fluoxetine],inhibition of CYP2D6,inhibit
